Among the data in patent publication US20090099157A1, “TETRAHYDRO-PYRAZOLO-PYRIDINE THIOETHER MODULATORS OF CATHEPSIN S” (priority 2007, published 2009) are IC50 values, retold here.

Protein sequences, listed by entry. Tags and fused reporters are not part of them. Residues count along the entry.
UniProt P25774, 115-331: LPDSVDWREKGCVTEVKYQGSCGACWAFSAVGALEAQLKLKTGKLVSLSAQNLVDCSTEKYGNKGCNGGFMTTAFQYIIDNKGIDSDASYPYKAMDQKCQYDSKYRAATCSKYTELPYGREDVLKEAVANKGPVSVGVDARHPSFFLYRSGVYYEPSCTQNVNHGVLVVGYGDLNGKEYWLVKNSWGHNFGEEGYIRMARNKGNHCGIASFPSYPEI

Some results are limits rather than exact numbers.

The target of the assay is Recombinant human cathepsin S (CatS) (Homo sapiens, UniProt P25774). As to the kind of experiment: biochemical.

With `COc1ccccc1C1CCN(CC(O)Cn2nc(-c3ccc(C(F)(F)F)c(SCC(=O)N4CCOCC4)c3)c3c2CCN(S(C)(=O)=O)C3)CC1` (stereo not drawn) [Example 833, 1-{4-[2-(Methyloxy)phenyl]piperidin-1-yl}-3-[5-(methylsulfonyl)-3-{3-[(2-morpholin-4-yl-2-oxoethyl)sulfanyl]-4-(trifluoromethyl)phenyl}-4,5,6,7-tetrahydro-1H-pyrazolo[4,3-c]pyridin-1-yl]propan-2-ol], the half-inhibitory concentration (IC50) stood at 10 nM.

As to `CS(=O)(=O)N1CCc2c(c(-c3ccc(C(F)(F)F)c(SCCN4CCCC4)c3)nn2CC(O)CN2CCC(c3ccccc3)CC2)C1` (stereo not drawn) [Example 616, 1-[5-(Methylsulfonyl)-3-{3-[(2-pyrrolidin-1-ylethyl)sulfanyl]-4-(trifluoromethyl)phenyl}-4,5,6,7-tetrahydro-1H-pyrazolo[4,3-c]pyridin-1-yl]-3-(4-phenylpiperidin-1-yl)propan-2-ol], the IC50 amounted to 25 nM.

Consider `CS(=O)(=O)N1CCc2c(c(-c3ccc(C(F)(F)F)c(SCC(=O)N4CC[C@@H](O)C4)c3)nn2CC(O)CN2CCC(NC(=O)CO)CC2)C1` (stereo partly drawn) [Example 697, 2-Hydroxy-N-[1-(2-hydroxy-3-{3-[3-({2-[(3R)-3-hydroxypyrrolidin-1-yl]-2-oxoethyl}sulfanyl)-4-(trifluoromethyl)phenyl]-5-(methylsulfonyl)-4,5,6,7-tetrahydro-1H-pyrazolo[4,3-c]pyridin-1-yl}propyl)piperidin-4-yl]acetamide], for which the IC50 amounted to 65 nM.

Take `CNCCSc1cc(-c2nn(CCCN3CCC(N4CCCC4=O)CC3)c3c2CN(S(C)(=O)=O)CC3)ccc1C(F)(F)F` [Example 30, 1-[1-(3-{5-Methanesulfonyl-3-[3-(2-methylamino-ethylsulfanyl)-4-trifluoromethyl-phenyl]-4,5,6,7-tetrahydro-pyrazolo[4,3-c]pyridin-1-yl}-propyl)-piperidin-4-yl]-pyrrolidin-2-one]: the IC50 stood at 800 nM.

As for `CS(=O)(=O)N1CCc2c(c(-c3ccc(C(F)(F)F)c(SCCN4CC[C@H](F)C4)c3)nn2C[C@@H](O)CN2CCC(C(N)=O)CC2)C1` [Example 565, 1-[(2S)-3-{3-[3-({2-[(3S)-3-Fluoropyrrolidin-1-yl]ethyl}sulfanyl)-4-(trifluoromethyl)phenyl]-5-(methylsulfonyl)-4,5,6,7-tetrahydro-1H-pyrazolo[4,3-c]pyridin-1-yl}-2-hydroxypropyl]piperidine-4-carboxamide], the IC50 worked out at 1160 nM.

With `CS(=O)(=O)N1CCc2c(c(-c3ccc(C(F)(F)F)c(SCCN4CCCC4)c3)nn2CC(O)CN2CCN(C3CC3)CC2)C1` (stereo not drawn) [Example 438, 1-(4-Cyclopropylpiperazin-1-yl)-3-[5-(methylsulfonyl)-3-{3-[(2-pyrrolidin-1-ylethyl)sulfanyl]-4-(trifluoromethyl)phenyl}-4,5,6,7-tetrahydro-1H-pyrazolo[4,3-c]pyridin-1-yl]propan-2-ol], the IC50 stood at 570 nM.

Regarding `CC(C)(C)OC(=O)NC1CCN(CCCn2nc(-c3ccc(C(F)(F)F)c(SCC(=O)N4CCOCC4)c3)c3c2CCN(S(C)(=O)=O)C3)CC1` [Example 113, [1-(3-{5-Methanesulfonyl-3-[3-(2-morpholin-4-yl-2-oxo-ethylsulfanyl)-4-trifluoromethyl-phenyl]-4,5,6,7-tetrahydro-pyrazolo[4,3-c]pyridin-1-yl}-propyl)-piperidin-4-yl]-carbamic acid tert-butyl ester], the IC50 came out at 60 nM.

For `CS(=O)(=O)N1CCc2c(c(-c3ccc(C(F)(F)F)c(SCCN4CCC(F)CC4)c3)nn2CC(O)CN2CCCCC2CO)C1` (stereo not drawn) [Example 571, 1-{3-[3-{[2-(4-Fluoropiperidin-1-yl)ethyl]sulfanyl}-4-(trifluoromethyl)phenyl]-5-(methylsulfonyl)-4,5,6,7-tetrahydro-1H-pyrazolo[4,3-c]pyridin-1-yl}-3-[2-(hydroxymethyl)piperidin-1-yl]propan-2-ol], the IC50 turned out to be 470 nM.

Regarding `CC1CCN(CCSc2cc(-c3nn(C[C@@H](O)CN4CCC(NC(=O)C(C)(C)O)CC4)c4c3CN(S(C)(=O)=O)CC4)ccc2C(F)(F)F)CC1` [Example 818, 2-Hydroxy-N-{1-[(2S)-2-hydroxy-3-{3-[3-{[2-(4-methylpiperidin-1-yl)ethyl]sulfanyl}-4-(trifluoromethyl)phenyl]-5-(methylsulfonyl)-4,5,6,7-tetrahydro-1H-pyrazolo[4,3-c]pyridin-1-yl}propyl]piperidin-4-yl}-2-methylpropanamide], the IC50 amounted to 45 nM.

In the case of `CS(=O)(=O)N1CCc2c(c(-c3ccc(C(F)(F)F)c(SCCN4CCC(F)CC4)c3)nn2C[C@H](O)CN2CCN(c3ccccc3)CC2)C1` [Example 737, (2R)-1-{3-[3-{[2-(4-Fluoropiperidin-1-yl)ethyl]sulfanyl}-4-(trifluoromethyl)phenyl]-5-(methylsulfonyl)-4,5,6,7-tetrahydro-1H-pyrazolo[4,3-c]pyridin-1-yl}-3-(4-phenylpiperazin-1-yl)propan-2-ol], the IC50 is 40 nM.

With `N#Cc1ccccc1N1CCN(CC(O)Cn2nc(-c3ccc(C(F)(F)F)c(SCCN4CCCCC4)c3)c3c2CCNC3)CC1` (stereo not drawn) [Example 431, 2-{4-[2-Hydroxy-3-(3-{3-[(2-piperidin-1-ylethyl)sulfanyl]-4-(trifluoromethyl)phenyl}-4,5,6,7-tetrahydro-1H-pyrazolo[4,3-c]pyridin-1-yl)propyl]piperazin-1-yl}benzonitrile], the IC50 turned out to be 230 nM.

As for `O=C(CSc1cc(-c2nn(CC(O)CN3CC[C@H](C(F)(F)F)C3)c3c2CNCC3)ccc1C(F)(F)F)N1CCCC1` (stereo partly drawn) [Example 315, 1-(3-{3-[(2-Oxo-2-pyrrolidin-1-ylethyl)sulfanyl]-4-(trifluoromethyl)phenyl}-4,5,6,7-tetrahydro-1H-pyrazolo[4,3-c]pyridin-1-yl)-3-[(3S)-3-(trifluoromethyl)pyrrolidin-1-yl]propan-2-ol], the half-inhibitory concentration (IC50) was more than 20000 nM.

Regarding `CS(=O)(=O)N1CCc2c(c(-c3ccc(C(F)(F)F)c(SCCN4CCC(F)CC4)c3)nn2C[C@@H](O)CN2CCCCC2)C1` [Example 199, (2S)-1-{3-[3-{[2-(4-Fluoropiperidin-1-yl)ethyl]sulfanyl}-4-(trifluoromethyl)phenyl]-5-(methylsulfonyl)-4,5,6,7-tetrahydro-1H-pyrazolo[4,3-c]pyridin-1-yl}-3-piperidin-1-ylpropan-2-ol], the IC50 turned out to be 60 nM.

For the molecule `CC1C(=O)NCCN1CCSc1cc(-c2nn(CC(O)CN3CCC(N4CCCC4)CC3)c3c2CN(S(C)(=O)=O)CC3)ccc1C(F)(F)F` (stereo not drawn) [Example 749, 4-(2-{[5-{1-[2-Hydroxy-3-(4-pyrrolidin-1-ylpiperidin-1-yl)propyl]-5-(methylsulfonyl)-4,5,6,7-tetrahydro-1H-pyrazolo[4,3-c]pyridin-3-yl}-2-(trifluoromethyl)phenyl]sulfanyl}ethyl)-3-methylpiperazin-2-one], the IC50 worked out at 570 nM.

In the case of `CS(=O)(=O)N1CCc2c(c(-c3ccc(C(F)(F)F)c(SCCN4CCCCC4c4ccccc4)c3)nn2CCCN2CCC(N3CCCC3=O)CC2)C1` (stereo not drawn) [Example 35, 1-{1-[3-(5-Methanesulfonyl-3-{3-[2-(2-phenyl-piperidin-1-yl)-ethylsulfanyl]-4-trifluoromethyl-phenyl}-4,5,6,7-tetrahydro-pyrazolo[4,3-c]pyridin-1-yl)-propyl]-piperidin-4-yl}-pyrrolidin-2-one], the IC50 worked out at 2110 nM.

`CS(=O)(=O)N1CCc2c(c(-c3ccc(C(F)(F)F)c(SCCN4CCOCC4)c3)nn2CC(O)CN2CCN(c3ccccc3C#N)CC2)C1` (stereo not drawn) [Example 183, 2-(4-{2-Hydroxy-3-[5-(methylsulfonyl)-3-{3-[(2-morpholin-4-ylethyl)sulfanyl]-4-(trifluoromethyl)phenyl}-4,5,6,7-tetrahydro-1H-pyrazolo[4,3-c]pyridin-1-yl]propyl}piperazin-1-yl)benzonitrile]: the IC50 worked out at 10 nM.

As to `CS(=O)(=O)NCCSc1cc(-c2nn(CC(O)CN3CCC(N4CCCC4=O)CC3)c3c2CN(S(C)(=O)=O)CC3)ccc1C(F)(F)F` (stereo not drawn) [Example 711, N-[2-({5-[1-{2-Hydroxy-3-[4-(2-oxopyrrolidin-1-yl)piperidin-1-yl]propyl}-5-(methylsulfonyl)-4,5,6,7-tetrahydro-1H-pyrazolo[4,3-c]pyridin-3-yl]-2-(trifluoromethyl)phenyl}sulfanyl)ethyl]methanesulfonamide], the IC50 amounted to 45 nM.

With `CC1CCN(CCSc2cc(-c3nn(C[C@@H](O)CN4CCC(N5C[C@H](O)CC5=O)CC4)c4c3CN(S(C)(=O)=O)CC4)ccc2C(F)(F)F)CC1` [Example 809, (4R)-4-Hydroxy-1-{1-[(2S)-2-hydroxy-3-{3-[3-{[2-(4-methylpiperidin-1-yl)ethyl]sulfanyl}-4-(trifluoromethyl)phenyl]-5-(methylsulfonyl)-4,5,6,7-tetrahydro-1H-pyrazolo[4,3-c]pyridin-1-yl}propyl]piperidin-4-yl}pyrrolidin-2-one], the IC50 was 50 nM.

As to `CS(=O)(=O)N1CCc2c(c(-c3ccc(C(F)(F)F)c(SCCN4CCC(F)CC4)c3)nn2CC(O)CN2CCC(C(=O)O)CC2)C1` (stereo not drawn) [Example 610, 1-(3-{3-[3-{[2-(4-Fluoropiperidin-1-yl)ethyl]sulfanyl}-4-(trifluoromethyl)phenyl]-5-(methylsulfonyl)-4,5,6,7-tetrahydro-1H-pyrazolo[4,3-c]pyridin-1-yl}-2-hydroxypropyl)piperidine-4-carboxylic acid], the IC50 was 270 nM.

Consider `CS(=O)(=O)N1CCc2c(c(-c3ccc(C(F)(F)F)c(SCC(=O)N4CCCCC4)c3)nn2CC(O)CN2CCN(c3ccccc3C#N)CC2)C1` (stereo not drawn) [Example 821, 2-(4-{2-Hydroxy-3-[5-(methylsulfonyl)-3-{3-[(2-oxo-2-piperidin-1-ylethyl)sulfanyl]-4-(trifluoromethyl)phenyl}-4,5,6,7-tetrahydro-1H-pyrazolo[4,3-c]pyridin-1-yl]propyl}piperazin-1-yl)benzonitrile], for which the concentration for half-maximal inhibition (IC50) worked out at 20 nM.

In the case of `CS(=O)(=O)N1CCc2c(c(-c3ccc(C(F)(F)F)c(SCCN4CCCCC4)c3)nn2CC(O)CN2CCN(C3CC3)CC2)C1` (stereo not drawn) [Example 159, 1-(4-Cyclopropylpiperazin-1-yl)-3-[5-(methylsulfonyl)-3-{3-[(2-piperidin-1-ylethyl)sulfanyl]-4-(trifluoromethyl)phenyl}-4,5,6,7-tetrahydro-1H-pyrazolo[4,3-c]pyridin-1-yl]propan-2-ol], the IC50 was found to be 290 nM.

In general, IC50 refers to the midpoint of a concentration-inhibition curve.
